Values of other authors as cited in PMC6396197, “Oligomannose Glycopeptide Conjugates Elicit Antibodies Targeting the Glycan Core Rather than Its Extremities” (ACS Central Science, 2019).

Test system: mice
Conditions: in vivo; cited from earlier work

Rituximab
half-life of truncation of Man9GlcNAc2 to Man5/6: ~6 h
time to nearly complete conversion to Man5/6: ≤ 2 days
